Measured affinities in a library of Ab-95 light chain variants

All variants were tested on one target, the spike HR2 peptide PDVDLGDISGINAS (SARS-CoV-2).

Ab-95 is the parent antibody, in scFv form: VH, then three GGGGS repeats, then VL. The heavy chain is unchanged in all variants.
VH: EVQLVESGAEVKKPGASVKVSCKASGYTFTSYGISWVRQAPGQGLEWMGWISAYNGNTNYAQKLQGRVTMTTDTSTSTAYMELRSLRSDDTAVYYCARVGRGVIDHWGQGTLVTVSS
VL: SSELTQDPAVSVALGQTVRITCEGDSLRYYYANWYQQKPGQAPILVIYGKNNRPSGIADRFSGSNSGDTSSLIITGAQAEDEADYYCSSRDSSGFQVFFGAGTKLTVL

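The parent was found by panning a naive human phage display library on the peptide. AAYL52 was designed without a model: most single CDR substitutions and a random sample of double and triple ones. In AlphaSeq, yeast of one mating type display the scFv and yeast of the other type display the target. The frequency of each diploid, read from paired DNA barcodes, reflects how well the two displayed proteins bind. The ratio of observed to expected reads was calibrated, replicate by replicate, on BCL2-family standards whose Kd was known from biolayer interferometry. Each pool was mated in three replicate cultures.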

Variants are written as CDR1, CDR2 and CDR3 of the light chain (limits as in the source). Parent: EGDSLRYYYAN, GKNNRPS, SSRDSSGFQVF.
All variants listed here change S26 of the VL, counted from its first residue.
Numbers give log10(Kd / nM), so 0 is 1 nM and 3 is 1 µM. Smaller is tighter.
The mean shown is taken over the replicates in which the pair was detected.
"nd" means that the variant was in the library but no mating with the target was seen in that replicate; the authors take this as a sign of poor binding, and no number exists.

CDR-L1,CDR-L2,CDR-L3,"replicates, log10 nM",mean log10 Kd (nM)
EGDPLVYYYAN,GTNNRPS,SSRDSSGFQVF,3.38 6.00 nd,4.69
EGDNLRYYYAN,GKNNRPS,SSRASSGFPVF,3.24 3.32 2.89,3.15
EGDVLRYYYAN,GDNNRPS,CSRDSSGFQVF,3.88 3.76 4.22,3.95
EGDYLRYYYAN,GKNNRPS,MSRDHSGFQVF,2.67 2.27 2.83,2.59
NGDMLRYYYAN,GKNNRPS,SSRDSRGFQVF,nd nd nd,nd
EGRVLRYYYAN,GKNWRPS,SSRDSSGFQVF,nd nd nd,nd
EGDCLRPYYAS,GKNNRPS,SSRDSSGFQVF,4.28 4.42 nd,4.35
EGDPLRYYYAN,GMNNRPS,KSRDSSGFQVF,nd nd nd,nd
EGDTLRYYYAN,GNNNRPS,SSRDSSGFQVF,2.98 2.47 2.37,2.61
EGDALRYYYAN,GCNNGPS,SSRDSSGFQVF,nd nd nd,nd
EGDRLRYYYMN,GKNNRPS,SSRDSSCFQVF,4.73 5.19 nd,4.96
EFDALRYYYAN,GKNNRPS,SSRDMSGFQVF,3.86 3.76 3.55,3.72
EGDCLSYYYAN,GKNNRPS,SSRDSSGFQVF,4.02 4.64 nd,4.33
EGDLLRYYYAN,GKNNRPS,SSRDSSGYQVG,3.67 4.95 nd,4.31
EGDMLRYYYAN,GKNNRQS,SSRDSSGFMVF,4.74 nd 3.83,4.28
KGDYLRYYYAN,GKNNRPC,SSRDSSGFQVF,2.27 2.75 2.97,2.66
DGDVLRYYYAD,GKNNRPS,SSRDSSGFQVF,3.67 nd nd,3.67
EGDGLRYYYAN,GKNNRPS,MSRDSSCFQVF,2.20 1.76 2.26,2.07
EGDQLRYYYAD,GGNNRPS,SSRDSSGFQVF,nd nd 4.25,4.25
EGDKLRKYYAH,GKNNRPS,SSRDSSGFQVF,nd nd nd,nd
EGDLLRYQYAN,GHNNRPS,SSRDSSGFQVF,2.59 2.39 2.45,2.48
MGDQLRYYYAN,GKNNRPS,SSRDSSGFQVF,3.15 3.76 3.73,3.55
EGDILRYYKAN,GKNNRPS,SSLDSSGFQVF,5.48 4.25 3.37,4.37
HGDELRYSYAN,GKNNRPS,SSRDSSGFQVF,1.32 1.29 0.54,1.05
EGDKMRYYYAN,GKNNRPS,SDRDSSGFQVF,4.37 4.43 3.99,4.26
EGDNLRYYYAN,GKNNRPS,SSWDSSGFQVF,3.19 3.05 2.24,2.83
EGDVLRYYIAN,GKNNRPY,SSRDSSGFQVF,4.66 nd nd,4.66
EGDPLRYCYAN,AKNNRPS,SSRDSSGFQVF,4.13 3.64 2.83,3.53
EGDMLRYYYAN,LKNNRPS,SSYDSSGFQVF,nd nd nd,nd
EGDDLRYYYAN,RKNNRPS,SSRDSSLFQVF,nd 3.78 4.50,4.14
EGDILRYYYAN,GKNNRPS,SSRDSSSFQVF,4.22 nd nd,4.22
EGDILRCYYAN,GKVNRPS,SSRDSSGFQVF,4.50 5.63 nd,5.06
EGDHLRYYYSN,GKNNRPS,SSRDSSGFQVH,2.57 2.79 2.26,2.54
EGDVLRYYYAN,GKSNRPS,SSFDSSGFQVF,nd nd nd,nd
EGDILRYTYAN,GKNNRPS,SSRDSSGFQAF,2.04 2.20 1.98,2.07
EGDRLNYYYAN,CKNNRPS,SSRDSSGFQVF,3.12 3.73 nd,3.42
EGDVLRYYYAN,GLNVRPS,SSRDSSGFQVF,2.44 2.85 2.77,2.69
EGDGLRYYYYN,GKNNRPS,SSYDSSGFQVF,nd 3.80 3.51,3.66
CGDDLRYYYAN,CKNNRPS,SSRDSSGFQVF,nd 3.03 nd,3.03
EGDILRYYYAN,GLNNRPS,SSRDSSHFQVF,5.03 3.60 nd,4.31
EGDNLRYYYAN,GKNNEPM,SSRDSSGFQVF,4.05 nd nd,4.05

5 of these entries, quoted again:

{"CDR-L1": "DGDVLRYYYAD", "CDR-L2": "GKNNRPS", "CDR-L3": "SSRDSSGFQVF", "replicates, log10 nM": "3.67 nd nd", "mean log10 Kd (nM)": "3.67"}
{"CDR-L1": "NGDMLRYYYAN", "CDR-L2": "GKNNRPS", "CDR-L3": "SSRDSRGFQVF", "replicates, log10 nM": "nd nd nd", "mean log10 Kd (nM)": "nd"}
{"CDR-L1": "EGDHLRYYYSN", "CDR-L2": "GKNNRPS", "CDR-L3": "SSRDSSGFQVH", "replicates, log10 nM": "2.57 2.79 2.26", "mean log10 Kd (nM)": "2.54"}
{"CDR-L1": "EGDLLRYYYAN", "CDR-L2": "GKNNRPS", "CDR-L3": "SSRDSSGYQVG", "replicates, log10 nM": "3.67 4.95 nd", "mean log10 Kd (nM)": "4.31"}
{"CDR-L1": "EGDPLRYYYAN", "CDR-L2": "GMNNRPS", "CDR-L3": "KSRDSSGFQVF", "replicates, log10 nM": "nd nd nd", "mean log10 Kd (nM)": "nd"}

As a blank, each scFv also met three strains without target: over library AAYL52, 28% of these pairings were detected, typically at 3.91 and seldom below 2.90.

Values reported by Engelhart et al. 2022, doi:10.1038/s41597-022-01779-4 (FLAb copy).